{"sequences": {"note": "By UniProt entry, the sequences of proteins in these tests, tags left out. Where a name states a change or a piece, a line headed by the entry shows the natural chain unless it says otherwise.", "UniProt P22086": "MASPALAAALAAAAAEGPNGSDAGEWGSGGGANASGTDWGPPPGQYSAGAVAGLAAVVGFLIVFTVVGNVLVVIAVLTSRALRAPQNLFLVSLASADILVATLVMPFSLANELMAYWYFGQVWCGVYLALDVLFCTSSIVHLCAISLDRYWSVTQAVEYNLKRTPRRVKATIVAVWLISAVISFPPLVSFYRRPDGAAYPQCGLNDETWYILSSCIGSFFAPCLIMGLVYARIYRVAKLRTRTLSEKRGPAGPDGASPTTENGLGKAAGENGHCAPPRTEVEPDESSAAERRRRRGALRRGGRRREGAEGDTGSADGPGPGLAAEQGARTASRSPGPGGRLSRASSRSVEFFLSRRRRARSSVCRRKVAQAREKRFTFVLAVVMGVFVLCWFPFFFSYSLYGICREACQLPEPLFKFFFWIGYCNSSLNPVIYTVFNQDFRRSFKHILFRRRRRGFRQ", "UniProt P19328": "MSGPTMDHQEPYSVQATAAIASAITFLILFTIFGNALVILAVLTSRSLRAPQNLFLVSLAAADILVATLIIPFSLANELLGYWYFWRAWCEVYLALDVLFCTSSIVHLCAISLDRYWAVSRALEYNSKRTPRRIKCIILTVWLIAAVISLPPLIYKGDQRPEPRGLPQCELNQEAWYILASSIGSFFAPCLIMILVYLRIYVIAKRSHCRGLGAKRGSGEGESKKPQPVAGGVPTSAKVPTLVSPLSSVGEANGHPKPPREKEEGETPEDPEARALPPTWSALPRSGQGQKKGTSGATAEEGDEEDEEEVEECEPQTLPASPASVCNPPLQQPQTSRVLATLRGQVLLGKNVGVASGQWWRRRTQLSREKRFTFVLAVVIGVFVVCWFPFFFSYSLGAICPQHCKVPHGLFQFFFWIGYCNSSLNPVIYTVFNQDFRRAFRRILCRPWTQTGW", "UniProt P22909": "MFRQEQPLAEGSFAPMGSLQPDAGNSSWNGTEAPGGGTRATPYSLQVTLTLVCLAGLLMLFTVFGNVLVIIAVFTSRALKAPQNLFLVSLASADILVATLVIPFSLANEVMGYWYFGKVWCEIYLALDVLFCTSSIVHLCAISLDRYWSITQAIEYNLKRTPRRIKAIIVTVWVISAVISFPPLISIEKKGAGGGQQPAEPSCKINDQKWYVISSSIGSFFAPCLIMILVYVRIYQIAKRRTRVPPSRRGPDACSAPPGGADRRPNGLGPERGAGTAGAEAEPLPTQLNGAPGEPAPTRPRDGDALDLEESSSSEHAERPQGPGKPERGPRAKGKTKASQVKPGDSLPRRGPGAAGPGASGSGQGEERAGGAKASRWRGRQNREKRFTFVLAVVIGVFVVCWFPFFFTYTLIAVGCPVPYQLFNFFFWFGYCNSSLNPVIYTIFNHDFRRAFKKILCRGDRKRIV"}, "source": "ChEMBL document CHEMBL1122788", "about": "“Quantitative relationships between alpha-adrenergic activity and binding affinity of alpha-adrenoceptor agonists and antagonists” (J Med Chem, 1984)", "molecular_target": "Adrenergic receptor alpha-2 (Rattus norvegicus, UniProt P22086+P19328+P22909)", "assay": "Binding affinity against Alpha-2 adrenergic receptor is the ability to inhibit the specific [3H]clonidine binding (0.4 nM) to rat isolated brain membranes by 50% was reported; 4.8*10e-9", "format": "tissue-based, Membrane"}
{"compound": "c1ccc2c(CC3=NCCN3)cccc2c1", "note": "[NAPHAZOLINE]", "values": [{"measurement": "IC50", "value": 4.8, "unit": "nM"}]}
